Results published in patent publication US20240240224A1, “FLUORESCENT D-TYPE AMINO ACID METABOLISM MARKER-BASED METHOD FOR DETECTING ANTIBACTERIAL DRUG SENSITIVITY TEST” (priority 2020, published 2024).

Experiments:
[1] = test system: A. baumannii Ab16; experiment: BMD susceptibility test; assay type: cell-based, Acinetobacter baumannii; conditions: unit assumed
[2] = test system: A. baumannii Ab16; experiment: FaAST (FDAA metabolic labeling); assay type: cell-based, Acinetobacter baumannii; conditions: unit assumed
Protocol: (§1) The specific experimental steps are as follows: • 1. Take the colony to be tested that has been cultured overnight on the plate and fully mix it in normal saline to make a uniform bacterial solution. Dilute it into CAMHB medium to make a bacterial solution with OD600=0.05. • 2. Add 45 μl antibiotic solutions to be tested of different concentrations to 96-well plates (see Table 3 for antibiotic concentration gradient settings). • 3. Add 50 μl of bacterial solution prepared in Step 1 to the 96-well plate and mix well. • 4.5 μl of 10 mM Cy5-DAA probe was added to each well (final concentration was 0.15 mM, and its structure was shown in FIG. 1). After mixing, the probe was incubated for 2 hours in the dark. • 5. After dilution with 200 μl PBS solution, the fluorescence intensity of each sample was detected by flow cytometry.

[3] = test system: Klebsiella pneumoniae KPN9; experiment: VITEK drug sensitivity test; assay type: cell-based; conditions: unit assumed
[4] = test system: K. pneumoniae Kp9; experiment: FaAST (FDAA metabolic labeling); assay type: cell-based, Klebsiella pneumoniae; conditions: unit assumed
Protocol: as §1

[5] = test system: Klebsiella pneumoniae KPN9; assay type: cell-based; conditions: DAA-Cy5-2 probe
Protocol: With reference to the flow chart of the rapid detection method of antimicrobial susceptibility test based on FDAA metabolic markers shown in FIG. 3, FDAA is used for the detection of antimicrobial susceptibility test of alveolar lavage fluid. The specific experimental steps are as follows: • 1. Mix bronchoalveolar lavage fluid (BALF, 10 ml) of patients with hospital acquired pneumonia with cation regulated broth medium (CAMHB, 10 ml) of twice the concentration to prepare the bacterial fluid to be tested. • 2. Add 45 μl antibiotic solutions of different concentrations to the 96-well plate separately (see Table 1 for antibiotic concentration gradient settings). • 3. Add 50 μl of the bacterial solution prepared in step 1 to the 96-well plate and mix well. • 4. Add 5 μl of 10 mM Cy5-DAA probe (final concentration 0.15 mM, see FIG. 1 for its structure) into each well, mix well, and then cultivate in dark for 2 hours. • 5. Add 200 μl PBS solution for dilution, and then use flow cytometry to detect the fluorescence intensity of each sample. The flow detection results are shown in FIG. 11-13 (imipenem: IPM; Levofloxacin: LEV; Tigecycline: TGC).
The specific steps are the same as in Example 5. […] The minimum inhibitory concentration of antibiotics was obtained according to the fluorescence signal intensity of flow detection, and the statistical results are shown in Table 7.

[6] = test system: K. pneumoniae Kp9; experiment: BMD susceptibility test; assay type: cell-based, Klebsiella pneumoniae; conditions: unit assumed
[7] = test system: alveolar lavage fluid sample 0204, A. baumannii; experiment: BMD susceptibility test of patient alveolar lavage fluid; assay type: cell-based, Acinetobacter baumannii; conditions: unit assumed
From the text: The results of antimicrobial susceptibility test of alveolar lavage fluid of seven patients using FDAA and BMD methods are shown in the following table. The drug-resistant bacteria are shown in bold.

Row | Compound | BMD (MIC) [1] [µg/mL] | FaAST (MIC) [2] [µg/mL] | MIC, VITEK [3] [µg/mL] | FaAST (MIC) [4] [µg/mL] | MIC, FaAST [5] [µg/mL] | BMD (MIC) [6] [µg/mL] | BMD (MIC) [7] [µg/mL]
1 | NCC[C@H](O)C(=O)N[C@@H]1C[C@H](N)[C@@H](O[C@H]2O[C@H](CN)[C@@H](O)[C@H](O)[C@H]2O)[C@H](O)[C@H]1O[C@H]1O[C@H](CO)[C@@H](O)[C@H](N)[C@H]1O [Amikacin] | > 256 | > 256 | 256 (≈ 437 µM) | > 256 | 256 (≈ 437 µM) | > 256 | –
2 | C[C@@H](O)[C@H]1C(=O)N2C(C(=O)O)=C(SCCN=CN)C[C@H]12 [Imipenem, imipenem] | – | – | – | 256 | – | – | –
3 | CC(=O)NC[C@H]1CN(c2ccc(N3CCOCC3)c(F)c2)C(=O)O1 [Linezolid, linezolid] | – | – | – | – | – | – | 256

Values after ≈ are worked out from the molar mass of the structure shown.
